From patent US7795456B2, “Insecticidal N-substituted sulfoximines” (Dow AgroSciences LLC, priority 2004, dated 2010)

Assays:
[1] = tested on: fruit fly (Drosophila melanogaster); test: Insecticidal test for fruit fly, dietary; conditions: 25 μg/cm2, 48 h
[2] = tested on: corn earworm (Helicoverpa zea); test: Insecticidal test for corn earworm in dietary assays; conditions: 50 μg/cm2, second-instar larvae, 5 days
[3] = tested on: beet armyworm (Spodoptera exigua); test: Insecticidal test for beet armyworm in dietary assays; conditions: 50 μg/cm2, second-instar larvae, 5 days

**Q.** Which results are given for `O=[N+]([O-])N=S1(=O)CCCC1`?
**A.** FF 25: % mortality at 25 μg/cm2 against fruit fly in dietary tests [1]: F (Less than 50); CEW 50: % mortality at 50 μg/cm2 against corn earworm in dietary tests [2]: G (Inactive); BAW 50: % mortality at 50 μg/cm2 against beet armyworm in dietary tests [3]: G (Inactive)
